Measurements as given in patent US10881679B2, “Application of a phillyrin/phillygeninin composition in preparing a medicine or health care product for alleviating or/and treating viral diseases, and medicine or health care product for treating viral diseases” (priority 2014, dated 2021).

System: Vero cells
Experiment: Cytotoxicity test (MTT) on Vero cells
Assay type: cell-based, African green monkey
Conditions: 72 h
Procedure: Cytotoxicity test: the drugs were diluted according to the concentrations shown in table 1-1 for determination of cytotoxicity. […] In addition, 6 wells were set up as normal control group (without drugs) while another 6 pores as blank control group (medium only). Cells were grown in a 37° C. incubator under 5% CO2. […] After 72 h, 20 μL MTT solution (5 mg·mL^−1) was added into each well to continue incubation for 4 h. The culture medium in each well was sucked and discarded, 100 μL DMSO was added to each well. Then the culture was shaken for 5 min, measured OD value at 492 nm to calculate the cell survival ratio. The cell survival ratio was analyzed using a Probit regression model in SPSS 18.0 statistical software, and the maximal nontoxic concentration (TC0) and median toxic concentration (TC50) of drugs against Vero cells were calculated.

## NC(=O)c1ncn([C@@H]2O[C@H](CO)[C@@H](O)[C@H]2O)n1 [Ribavirin]
  maximal non-toxic concentration (TC0): 0.065 g/L
